# How the values were obtained:
# Chains of the proteins cited; added tags and fusions are not shown. Residues count along the entry.
# UniProt Q00959, 23-1464: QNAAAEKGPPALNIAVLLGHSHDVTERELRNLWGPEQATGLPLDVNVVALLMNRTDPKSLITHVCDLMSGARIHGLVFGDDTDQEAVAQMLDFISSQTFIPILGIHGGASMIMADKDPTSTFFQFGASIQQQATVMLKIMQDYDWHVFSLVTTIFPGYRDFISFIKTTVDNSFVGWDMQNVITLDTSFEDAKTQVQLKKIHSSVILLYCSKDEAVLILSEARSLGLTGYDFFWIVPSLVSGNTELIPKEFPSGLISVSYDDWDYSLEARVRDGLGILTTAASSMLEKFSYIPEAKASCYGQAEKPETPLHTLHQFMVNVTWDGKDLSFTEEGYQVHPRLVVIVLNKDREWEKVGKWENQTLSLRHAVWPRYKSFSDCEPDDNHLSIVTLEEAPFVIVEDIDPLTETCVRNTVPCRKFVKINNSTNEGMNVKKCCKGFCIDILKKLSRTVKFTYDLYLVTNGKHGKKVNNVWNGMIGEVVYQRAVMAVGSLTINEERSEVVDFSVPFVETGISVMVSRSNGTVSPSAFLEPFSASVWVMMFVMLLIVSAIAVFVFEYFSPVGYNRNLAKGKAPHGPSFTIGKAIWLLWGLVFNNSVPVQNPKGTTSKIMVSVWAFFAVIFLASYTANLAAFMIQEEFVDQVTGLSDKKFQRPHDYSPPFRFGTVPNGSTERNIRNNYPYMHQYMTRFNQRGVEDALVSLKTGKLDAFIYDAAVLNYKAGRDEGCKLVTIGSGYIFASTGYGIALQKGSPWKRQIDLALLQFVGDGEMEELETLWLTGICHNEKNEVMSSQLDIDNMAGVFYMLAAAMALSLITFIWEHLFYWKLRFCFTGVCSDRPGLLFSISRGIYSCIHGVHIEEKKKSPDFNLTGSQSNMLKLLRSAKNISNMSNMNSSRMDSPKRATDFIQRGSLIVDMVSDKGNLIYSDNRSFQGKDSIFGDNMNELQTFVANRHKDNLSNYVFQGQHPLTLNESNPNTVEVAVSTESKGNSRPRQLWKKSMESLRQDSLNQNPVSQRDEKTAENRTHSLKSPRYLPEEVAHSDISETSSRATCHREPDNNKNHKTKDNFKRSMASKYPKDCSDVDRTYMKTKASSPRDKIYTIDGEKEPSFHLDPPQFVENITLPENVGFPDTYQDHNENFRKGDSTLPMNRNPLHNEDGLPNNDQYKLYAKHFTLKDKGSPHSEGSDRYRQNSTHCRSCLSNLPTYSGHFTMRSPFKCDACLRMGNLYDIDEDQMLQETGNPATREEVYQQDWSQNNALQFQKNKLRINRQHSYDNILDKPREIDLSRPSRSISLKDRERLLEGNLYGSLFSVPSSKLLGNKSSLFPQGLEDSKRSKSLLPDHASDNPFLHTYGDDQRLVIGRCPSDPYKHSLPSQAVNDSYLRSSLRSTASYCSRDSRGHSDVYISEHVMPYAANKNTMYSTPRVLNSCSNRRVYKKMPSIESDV
# UniProt Q00959, 23-1464 T797S: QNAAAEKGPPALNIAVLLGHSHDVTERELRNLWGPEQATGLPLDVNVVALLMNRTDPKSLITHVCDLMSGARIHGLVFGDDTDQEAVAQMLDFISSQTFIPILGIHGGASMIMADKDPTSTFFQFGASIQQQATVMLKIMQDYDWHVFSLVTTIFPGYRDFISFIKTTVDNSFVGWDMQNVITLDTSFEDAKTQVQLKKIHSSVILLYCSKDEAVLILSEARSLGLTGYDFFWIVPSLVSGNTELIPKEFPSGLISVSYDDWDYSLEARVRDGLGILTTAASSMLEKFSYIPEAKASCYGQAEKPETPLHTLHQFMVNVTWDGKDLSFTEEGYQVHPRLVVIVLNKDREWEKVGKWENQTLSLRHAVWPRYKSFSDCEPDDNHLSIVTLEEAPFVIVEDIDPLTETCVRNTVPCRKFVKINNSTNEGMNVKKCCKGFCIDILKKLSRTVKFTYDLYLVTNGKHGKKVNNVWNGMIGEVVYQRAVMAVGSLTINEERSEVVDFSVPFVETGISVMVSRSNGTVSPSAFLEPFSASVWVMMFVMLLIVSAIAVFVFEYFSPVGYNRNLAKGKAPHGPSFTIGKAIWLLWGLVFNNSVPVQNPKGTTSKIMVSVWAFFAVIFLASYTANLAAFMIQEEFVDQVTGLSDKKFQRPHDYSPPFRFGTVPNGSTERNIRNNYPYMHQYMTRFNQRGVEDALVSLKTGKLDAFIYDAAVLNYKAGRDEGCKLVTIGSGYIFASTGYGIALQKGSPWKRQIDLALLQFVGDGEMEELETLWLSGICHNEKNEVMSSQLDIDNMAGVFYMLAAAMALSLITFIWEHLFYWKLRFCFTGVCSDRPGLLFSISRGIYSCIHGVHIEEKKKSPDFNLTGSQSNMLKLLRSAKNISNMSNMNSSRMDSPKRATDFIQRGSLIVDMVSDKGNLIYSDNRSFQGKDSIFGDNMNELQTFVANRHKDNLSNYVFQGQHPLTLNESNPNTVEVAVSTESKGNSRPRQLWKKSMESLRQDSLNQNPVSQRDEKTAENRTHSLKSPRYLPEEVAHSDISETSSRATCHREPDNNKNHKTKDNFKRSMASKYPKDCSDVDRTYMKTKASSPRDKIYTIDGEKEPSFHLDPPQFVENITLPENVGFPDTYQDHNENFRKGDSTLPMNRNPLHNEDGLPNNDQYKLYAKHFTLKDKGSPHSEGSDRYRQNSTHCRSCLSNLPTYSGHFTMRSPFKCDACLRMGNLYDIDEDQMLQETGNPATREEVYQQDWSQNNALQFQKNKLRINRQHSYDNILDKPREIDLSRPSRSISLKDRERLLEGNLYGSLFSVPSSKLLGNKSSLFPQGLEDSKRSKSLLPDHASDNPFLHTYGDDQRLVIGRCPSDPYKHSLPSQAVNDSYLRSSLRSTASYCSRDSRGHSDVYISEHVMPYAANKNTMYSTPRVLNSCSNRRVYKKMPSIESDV
# UniProt Q00959, 23-1464 Y754K/I755V: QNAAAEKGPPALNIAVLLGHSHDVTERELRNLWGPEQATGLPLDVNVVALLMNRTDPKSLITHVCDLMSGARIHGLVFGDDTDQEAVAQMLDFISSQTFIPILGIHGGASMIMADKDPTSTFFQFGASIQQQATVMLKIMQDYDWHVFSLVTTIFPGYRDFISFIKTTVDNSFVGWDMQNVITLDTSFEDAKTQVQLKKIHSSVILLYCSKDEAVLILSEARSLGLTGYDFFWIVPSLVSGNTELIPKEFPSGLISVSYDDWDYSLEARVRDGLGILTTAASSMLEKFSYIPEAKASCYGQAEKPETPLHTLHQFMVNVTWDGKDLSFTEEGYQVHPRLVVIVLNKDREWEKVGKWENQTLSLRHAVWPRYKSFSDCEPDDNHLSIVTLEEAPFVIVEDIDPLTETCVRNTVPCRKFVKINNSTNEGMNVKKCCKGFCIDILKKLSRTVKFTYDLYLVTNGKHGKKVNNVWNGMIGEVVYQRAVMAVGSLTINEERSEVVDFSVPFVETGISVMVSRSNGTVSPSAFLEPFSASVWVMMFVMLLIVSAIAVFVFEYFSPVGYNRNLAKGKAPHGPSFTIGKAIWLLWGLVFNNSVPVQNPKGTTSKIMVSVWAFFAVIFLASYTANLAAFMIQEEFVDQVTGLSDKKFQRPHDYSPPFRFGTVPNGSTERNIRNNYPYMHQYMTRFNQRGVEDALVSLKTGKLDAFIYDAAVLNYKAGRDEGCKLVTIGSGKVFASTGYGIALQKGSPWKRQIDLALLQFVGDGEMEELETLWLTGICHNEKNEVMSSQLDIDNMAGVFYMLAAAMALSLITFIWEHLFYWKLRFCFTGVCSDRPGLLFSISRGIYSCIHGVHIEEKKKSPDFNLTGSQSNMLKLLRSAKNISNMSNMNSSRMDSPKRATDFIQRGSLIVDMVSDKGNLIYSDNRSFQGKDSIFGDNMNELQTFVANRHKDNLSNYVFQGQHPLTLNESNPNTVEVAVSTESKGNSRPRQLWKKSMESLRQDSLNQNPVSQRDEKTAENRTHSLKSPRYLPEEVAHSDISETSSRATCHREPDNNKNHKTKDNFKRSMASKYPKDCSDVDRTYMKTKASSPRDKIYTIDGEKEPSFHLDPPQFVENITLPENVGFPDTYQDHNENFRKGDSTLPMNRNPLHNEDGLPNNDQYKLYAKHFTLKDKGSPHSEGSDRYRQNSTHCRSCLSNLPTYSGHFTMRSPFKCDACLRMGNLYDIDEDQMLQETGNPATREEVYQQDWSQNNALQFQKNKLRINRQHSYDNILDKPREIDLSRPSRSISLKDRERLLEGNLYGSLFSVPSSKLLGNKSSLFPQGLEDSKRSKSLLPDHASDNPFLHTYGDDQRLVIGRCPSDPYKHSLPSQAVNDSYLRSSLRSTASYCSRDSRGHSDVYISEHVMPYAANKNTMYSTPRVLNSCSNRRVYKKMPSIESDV
# UniProt Q00959, 23-1464 M788I: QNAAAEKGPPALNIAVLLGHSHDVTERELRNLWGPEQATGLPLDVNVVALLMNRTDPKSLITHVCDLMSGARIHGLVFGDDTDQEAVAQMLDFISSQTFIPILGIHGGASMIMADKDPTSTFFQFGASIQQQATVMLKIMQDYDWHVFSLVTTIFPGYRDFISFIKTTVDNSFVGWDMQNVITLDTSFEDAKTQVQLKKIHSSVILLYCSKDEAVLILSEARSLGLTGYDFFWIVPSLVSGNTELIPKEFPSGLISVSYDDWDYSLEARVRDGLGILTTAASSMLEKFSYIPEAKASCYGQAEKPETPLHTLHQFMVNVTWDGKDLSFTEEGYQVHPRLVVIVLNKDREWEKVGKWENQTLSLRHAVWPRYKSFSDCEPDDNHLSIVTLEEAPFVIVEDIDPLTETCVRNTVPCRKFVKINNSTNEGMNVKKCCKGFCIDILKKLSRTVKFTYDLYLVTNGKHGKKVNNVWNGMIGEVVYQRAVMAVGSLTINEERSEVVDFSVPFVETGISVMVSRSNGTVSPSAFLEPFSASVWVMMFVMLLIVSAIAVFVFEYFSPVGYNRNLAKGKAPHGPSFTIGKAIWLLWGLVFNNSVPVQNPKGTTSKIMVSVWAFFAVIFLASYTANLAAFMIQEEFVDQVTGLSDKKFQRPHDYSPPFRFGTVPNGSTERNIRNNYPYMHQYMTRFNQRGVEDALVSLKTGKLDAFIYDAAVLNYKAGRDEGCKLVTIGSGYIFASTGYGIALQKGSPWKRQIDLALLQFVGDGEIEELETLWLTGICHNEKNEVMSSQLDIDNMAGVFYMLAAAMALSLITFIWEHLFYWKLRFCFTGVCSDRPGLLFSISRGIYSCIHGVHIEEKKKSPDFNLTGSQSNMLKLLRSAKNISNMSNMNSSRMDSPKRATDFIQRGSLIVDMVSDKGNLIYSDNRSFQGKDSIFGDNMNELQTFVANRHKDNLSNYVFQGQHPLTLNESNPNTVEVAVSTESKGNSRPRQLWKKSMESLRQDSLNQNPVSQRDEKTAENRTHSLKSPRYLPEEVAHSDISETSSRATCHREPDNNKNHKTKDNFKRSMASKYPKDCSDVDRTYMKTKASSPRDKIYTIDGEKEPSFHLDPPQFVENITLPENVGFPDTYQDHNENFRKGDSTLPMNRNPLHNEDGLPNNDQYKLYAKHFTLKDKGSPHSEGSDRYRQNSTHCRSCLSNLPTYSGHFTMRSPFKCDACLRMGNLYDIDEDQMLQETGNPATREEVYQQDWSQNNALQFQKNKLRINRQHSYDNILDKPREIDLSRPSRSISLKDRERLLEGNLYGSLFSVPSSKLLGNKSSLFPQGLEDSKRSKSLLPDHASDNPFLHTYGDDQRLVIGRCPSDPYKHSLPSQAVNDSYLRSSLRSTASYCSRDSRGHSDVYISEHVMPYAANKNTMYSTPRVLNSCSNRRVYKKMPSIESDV
# GluN1-R755A/2A = GluN1-R755A/2A (Rattus norvegicus, UniProt P35439+Q00959, R755A); test: Two-electrode voltage-clamp recordings, mutant GluN1-R755A/2A; assay type: cell-based; conditions: 300 μM glutamate
# GluN1/2A-T797S = GluN1/2A-T797S (Rattus norvegicus, UniProt P35439+Q00959, T797S); test: Two-electrode voltage-clamp recordings, mutant GluN1/2A-T797S; assay type: cell-based; conditions: 300 μM glutamate
# GluN1/2A-I755V+Y754K = GluN1/2A-I755V+Y754K (Rattus norvegicus, UniProt P35439+Q00959, I755V/Y754K); test: Two-electrode voltage-clamp recordings, mutant GluN1/2A-I755V+Y754K; assay type: cell-based; conditions: 300 μM glutamate
# GluN1/2A-M788I = GluN1/2A-M788I (Rattus norvegicus, UniProt P35439+Q00959, M788I); test: Two-electrode voltage-clamp recordings, mutant GluN1/2A-M788I; assay type: cell-based; conditions: 300 μM glutamate
# GluN1/2A-M788T = GluN1/2A-M788T (Rattus norvegicus, UniProt P35439+Q00959, M788T); test: Two-electrode voltage-clamp recordings, mutant GluN1/2A-M788T; assay type: cell-based; conditions: 300 μM glutamate
# GluN1/2C receptors = GluN1/2C receptors (Rattus norvegicus, UniProt P35439+Q00961); conditions: 300 μM glutamate; ref Zhao et al. (2022); cited from earlier work
# GluN1/2A-V529I = GluN1/2A-V529I (Rattus norvegicus, UniProt P35439+Q00959, V529I); test: Two-electrode voltage-clamp recordings, mutant GluN1/2A-V529I; assay type: cell-based; conditions: 300 μM glutamate
# GluN1/2B receptors = GluN1/2B receptors (Rattus norvegicus, UniProt P35439+Q00960); conditions: 300 μM glutamate; ref Zhao et al. (2022); cited from earlier work
# GluN1/2A-I755V = GluN1/2A-I755V (Rattus norvegicus, UniProt P35439+Q00959, I755V); test: Two-electrode voltage-clamp recordings, mutant GluN1/2A-I755V; assay type: cell-based; conditions: 300 μM glutamate
# GluN1/2A-V783L = GluN1/2A-V783L (Rattus norvegicus, UniProt P35439+Q00959, V783L); test: Two-electrode voltage-clamp recordings, mutant GluN1/2A-V783L; assay type: cell-based; conditions: 300 μM glutamate
# GluN1/2A-Y754K = GluN1/2A-Y754K (Rattus norvegicus, UniProt P35439+Q00959, Y754K); test: Two-electrode voltage-clamp recordings, mutant GluN1/2A-Y754K; assay type: cell-based; conditions: 300 μM glutamate
# GluN1/2A receptors = GluN1/2A receptors (Rattus norvegicus, UniProt P35439+Q00959); conditions: 300 μM glutamate; ref Lotti et al. (2025); cited from earlier work
# GluN1/2D receptors = GluN1/2D receptors (Rattus norvegicus, UniProt P35439+Q62645); conditions: 300 μM glutamate; ref Zhao et al. (2022); cited from earlier work
# GluN1/2A-I755F = GluN1/2A-I755F (Rattus norvegicus, UniProt P35439+Q00959, I755F); test: Two-electrode voltage-clamp recordings, mutant GluN1/2A-I755F; assay type: cell-based; conditions: 300 μM glutamate
# GluN1/2A-V783F = GluN1/2A-V783F (Rattus norvegicus, UniProt P35439+Q00959, V783F); test: Two-electrode voltage-clamp recordings, mutant GluN1/2A-V783F; assay type: cell-based; conditions: 300 μM glutamate
# GluN1/2A-E789Q = GluN1/2A-E789Q (Rattus norvegicus, UniProt P35439+Q00959, E789Q); test: Two-electrode voltage-clamp recordings, mutant GluN1/2A-E789Q; assay type: cell-based; conditions: 300 μM glutamate
# GluN1-Y535A/2A = GluN1-Y535A/2A (Rattus norvegicus, UniProt P35439+Q00959, Y535A); test: Two-electrode voltage-clamp recordings, mutant GluN1-Y535A/2A; assay type: cell-based; conditions: 300 μM glutamate
smiles,measurement,setting,value
NCC(=O)O [Glycine],Hill slope nH of glycine activation,GluN1-R755A/2A,1.9
same,Hill slope nH of glycine activation,GluN1/2A-T797S,1.5
same,Hill slope nH of glycine activation,GluN1/2A-I755V+Y754K,1.7
same,Hill slope nH of glycine activation,GluN1/2A-M788I,1.7
same,Hill slope nH of glycine activation,GluN1/2A-M788T,1.7
same,Hill slope nH of glycine activation,GluN1/2C receptors,1.6
same,Hill slope nH of glycine activation,GluN1/2A-V529I,1.5
same,Hill slope nH of glycine activation,GluN1/2B receptors,1.8
same,Hill slope nH of glycine activation,GluN1/2A-I755V,1.6
same,Hill slope nH of glycine activation,GluN1/2A-V783L,1.7
same,Hill slope nH of glycine activation,GluN1/2A-Y754K,1.6
same,Hill slope nH of glycine activation,GluN1/2A receptors,1.6
same,Hill slope nH of glycine activation,GluN1/2D receptors,1.3
same,Hill slope nH of glycine activation,GluN1/2A-I755F,1.9
same,Hill slope nH of glycine activation,GluN1/2A-V783F,1.8
same,Hill slope nH of glycine activation,GluN1/2A-E789Q,1.6
same,Hill slope nH of glycine activation,GluN1-Y535A/2A,1.5
